{"source": "patent US20250295728A1", "about": "(UCB Biopharma SRL, priority 2022, published 2025)", "origin": "cited, not measured here", "molecules": {"B1": {"name": "eculizumab (antibody, chains of the INN, looked up)", "heavy": "QVQLVQSGAEVKKPGASVKVSCKASGYIFSNYWIQWVRQAPGQGLEWMGEILPGSGSTEYTENFKDRVTMTRDTSTSTVYMELSSLRSEDTAVYYCARYFFGSSPNWYFDVWGQGTLVTVSSASTKGPSVFPLAPCSRSTSESTAALGCLVKDYFPEPVTVSWNSGALTSGVHTFPAVLQSSGLYSLSSVVTVPSSNFGTQTYTCNVDHKPSNTKVDKTVERKCCVECPPCPAPPVAGPSVFLFPPKPKDTLMISRTPEVTCVVVDVSQEDPEVQFNWYVDGVEVHNAKTKPREEQFNSTYRVVSVLTVLHQDWLNGKEYKCKVSNKGLPSSIEKTISKAKGQPREPQVYTLPPSQEEMTKNQVSLTCLVKGFYPSDIAVEWESNGQPENNYKTTPPVLDSDGSFFLYSRLTVDKSRWQEGNVFSCSVMHEALHNHYTQKSLSLSLG", "light": "DIQMTQSPSSLSASVGDRVTITCGASENIYGALNWYQQKPGKAPKLLIYGATNLADGVPSRFSGSGSGTDFTLTISSLQPEDFATYYCQNVLNTPLTFGQGTKVEIKRTVAAPSVFIFPPSDEQLKSGTASVVCLLNNFYPREAKVQWKVDNALQSGNSQESVTEQDSKDSTYSLSSTLTLSKADYEKHKVYACEVTHQGLSSPVTKSFNRGEC"}}, "key": {"[1]": {"system": "AChR autoantibody-positive patients"}, "[2]": {"system": "AChR autoantibody-positive patients with refractory gMG"}, "[3]": {"conditions": "REGAIN and open-label extension"}}}
{"molecule": "B1", "values": [{"measurement": "secondary endpoint: change from baseline in QMG score", "setting": "[1]; 26-week treatment period, p=0.0129", "value": "statistically significant results were observed"}, {"measurement": "primary endpoint: change from baseline in MG-ADL relative to placebo", "setting": "[1]; 26-week treatment period, p=0.0698", "value": "not associated with a statistically significant benefit relative to placebo"}, {"measurement": "MG-ADL late responders (response between Week 12 and end of OLE)", "setting": "[1]; [3]", "value": 17, "unit": "%"}, {"measurement": "MG-ADL non responders", "setting": "[1]; [3]", "value": 15, "unit": "%"}, {"measurement": "QMG late responders (response between Week 12 and end of OLE)", "setting": "[1]; [3]", "value": 15, "unit": "%"}, {"measurement": "QMG non responders", "setting": "[1]; [3]", "value": 29, "unit": "%"}, {"measurement": "time to impact on QMG score after initiating treatment", "setting": "[2]; in vivo", "value": "≤ 1", "unit": "week"}, {"measurement": "responders achieving an 8-point reduction in QMG score", "setting": "[2]; initial 16-week treatment period", "value": 4, "unit": "patients"}, {"measurement": "patients achieving a ≥3-point improvement in QMG score", "setting": "[2]; initial 16-week treatment period, IV infusion", "value": "6 out of 7"}]}
